Reference: publication PMC2855817 (Biochemistry, 2010)
“And” between values parts separate entries of the source, which are not always exact repeats. Equal values may be shown once.

Test system: COC(C)=O
Assay: purified protein
Details: pH 7.2, 5 mM BES, 23 °C

In the case of “PFE (Pseudomonas fluorescens esterase; aryl esterase) (Pseudomonas fluorescens; L30P)”, the Km is reported as 43 ± 3 mM and 50 ± 5 mM and the kcat/Km is reported as 600 M⁻¹ s⁻¹ and 200 M⁻¹ s⁻¹.
